Source: patent EP3970494A1 (priority 2020, dated 2022)

Columns and labels:
Phakopsora pachyrhizi [1] = experiment: Protective control of soybean rust on soybeans, inoculation six days after treatment (PHAKPA P6); assay type: in vivo; settings: soybean seedlings inoculated six days after treatment, strain with F129L in cytochrome b, % diseased leaf area, untreated controls usually higher than 85 %; for PHAKPA Disease level (%) P6 at 4 ppm: 4 ppm spray; for PHAKPA Disease level (%) P6 at 16 ppm: 16 ppm spray
Phakopsora pachyrhizi [2] = experiment: Protective control of soybean rust on soybeans, inoculation 2 days after treatment (PHAKPA P2); assay type: in vivo; settings: soybean seedlings inoculated 2 days after treatment, strain with F129L in cytochrome b, % diseased leaf area, untreated controls usually higher than 85 %; for PHAKPA Disease level (%) P2 at 4 ppm: 4 ppm spray; for PHAKPA Disease level (%) P2 at 16 ppm: 16 ppm spray

SMILES | PHAKPA Disease level (%) P6 at 4 ppm (Phakopsora pachyrhizi [1]) [%] | PHAKPA Disease level (%) P6 at 16 ppm (Phakopsora pachyrhizi [1]) [%] | PHAKPA Disease level (%) P2 at 4 ppm (Phakopsora pachyrhizi [2]) [%] | PHAKPA Disease level (%) P2 at 16 ppm (Phakopsora pachyrhizi [2]) [%]
CNC(=O)/C(=N/OC)c1cccc(C)c1CO/N=C(\C)c1ncc(C)s1 [Example 148] | 90 | 60 | 67 | 20
CNC(=O)/C(=N/OC)c1cccc(C)c1CO/N=C(\C)c1cccc(C)n1 [Example 81] | 97 | 87 | 97 | 63
CO/N=C(/C(=O)OC)c1cccc(C)c1CO/N=C(\C)c1ncc(-c2ccc(F)cc2)s1 [Example 79, Methyl (2E)-2-[2-[[(E)-1-[5-(4-fluorophenyl)thiazol-2-yl]ethylideneamino]oxymethyl]-3-methyl-phenyl]-2-methoxyimino-acetate] | 92 | 85 | 95 | 92
CNC(=O)/C(=N/OC)c1cccc(C)c1CO/N=C(\C)c1ccnc(C(F)(F)F)c1 [Example 48] | 83 | 33 | 57 | 4
CO/N=C(/C(=O)OC)c1cccc(C)c1CO/N=C(\C)c1cccc(C)n1 [Example 65] | 100 | 37 | 100 | 35
C=Cc1cnc(/C(C)=N/OCc2c(C)cccc2/C(=N\OC)C(=O)NC)s1 [Example 144] | 97 | 83 | 83 | 63
CO/N=C(/C(=O)OC)c1cccc(C)c1CO/N=C(\C)c1ccnc(SC)c1 [Example 94] | 87 | 80 | 100 | 97
CNC(=O)/C(=N/OC)c1cccc(C)c1CO/N=C(\C)c1csc(C(F)(F)F)n1 [Example 115] | 67 | 25 | 77 | 6
CNC(=O)/C(=N/OC)c1cccc(C)c1CO/N=C(\C)c1cc(-c2cccc(C(F)(F)F)c2)on1 [Example 22, (2E)-2-Methoxyimino-N-methyl-2-[3-methyl-2-[[(E)-1-[5-[3-(trifluoromethyl)phenyl]-isoxazol-3-yl]ethylideneamino]oxymethyl]phenyl]acetamide] | 67 | 26 | 73 | 33
CO/N=C(/C(=O)OC)c1cccc(C)c1CO/N=C(\C)c1cc(C(F)(F)F)cc(Cl)n1 [Example 42] | 57 | 30 | 60 | 28
CO/N=C(/C(=O)OC)c1cccc(C)c1CO/N=C(\C)c1cnccc1C(F)(F)F [Example 155] | 100 | 100 | 100 | 100
CNC(=O)/C(=N/OC)c1cccc(C)c1CO/N=C(\C)c1cc(C(F)(F)F)cc(Cl)n1 [Example 43] | 32 | 3 | 13 | 1
CNC(=O)/C(=N/OC)c1cccc(C)c1CO/N=C(\C)c1cc(C#N)cc(Cl)n1 [Example 63] | 70 | 5 | 43 | 11
CNC(=O)/C(=N/OC)c1cccc(C)c1CO/N=C(\C)c1ccc(Cl)nn1 [Example 92] | 53 | 53 | 92 | 90
CO/N=C(/C(=O)OC)c1cccc(C)c1CO/N=C(\C)c1cc(C(F)F)nc(C)n1 [Example 60] | 70 | 20 | 70 | 23
CO/N=C(/C(=O)OC)c1cccc(C)c1CO/N=C(\C)c1ncccc1C(F)(F)F [Example 27, Methyl (2E)-2-methoxyimino-2-[3-methyl-2-[[(E)-1-[3-(trifluoromethyl)-2-pyridyl]-ethylideneamino]oxymethyl]phenyl]acetate] | 96 | 32 | 94 | 24

SMILES | PHAKPA Disease level (%) P6 at 4 ppm (Phakopsora pachyrhizi [1]) [%] | PHAKPA Disease level (%) P6 at 16 ppm (Phakopsora pachyrhizi [1]) [%] | PHAKPA Disease level (%) P2 at 4 ppm (Phakopsora pachyrhizi [2]) [%] | PHAKPA Disease level (%) P2 at 16 ppm (Phakopsora pachyrhizi [2]) [%]
CO/N=C(/C(=O)OC)c1cccc(C)c1CO/N=C(\C)c1cc(C)ccn1 [Example 25] | 97 | 73 | 93 | 57
CNC(=O)/C(=N/OC)c1cccc(C)c1CO/N=C(\C)c1ncc(-c2ccc(F)cc2)s1 [Example 78, (2E)-2-[2-[[(E)-1-[5-(4-fluorophenyl)thiazol-2-yl]ethylideneamino]oxymethyl]-3-methyl-phenyl]-2-methoxyimino-N-methyl-acetamide] | 88 | 90 | 87 | 90
CO/N=C(/C(=O)OC)c1cccc(C)c1CO/N=C(\C)c1ccccn1 [Example 129] | 78 | 78 | 90 | 76
CO/N=C(/C(=O)OC)c1cccc(C)c1CO/N=C(\C)c1cnc(Cl)c(Cl)c1 [Example 87] | 100 | 97 | 100 | 100
CNC(=O)/C(=N/OC)c1cccc(C)c1CO/N=C(\C)c1cnc(C(F)(F)F)cn1 [Example 97, (2E)-2-methoxyimino-N-methyl-2-[3-methyl-2-[[(E)-1-[5-(trifluoromethyl)pyrazin-2-yl]ethylideneamino]oxymethyl]phenyl]acetamide] | 14 | 1 | 3 | 0
CNC(=O)/C(=N/OC)c1cccc(C)c1CO/N=C(\C)c1cc(C(F)(F)F)c(C#N)cn1 [Example 99] | 9 | 2 | 23 | 1
CNC(=O)/C(=N/OC)c1cccc(C)c1CO/N=C(\C)c1nc(C(F)(F)F)cs1 [Example 95] | 87 | 35 | 80 | 53
CNC(=O)/C(=N/OC)c1cccc(C)c1CO/N=C(\C)c1cccnc1 [Example 135] | 43 | 11 | 19 | 0.8
CNC(=O)/C(=N/OC)c1cccc(C)c1CO/N=C(\C)c1nccs1 [Example 133] | 85 | 60 | 75 | 42
CO/N=C(\C)c1cccc(/C(C)=N/OCc2c(C)cccc2/C(=N\OC)C(=O)OC)n1 [Example 31] | 83 | 33 | 90 | 67
CNC(=O)/C(=N/OC)c1cccc(C)c1CO/N=C(\C)c1cnccc1C(F)(F)F [Example 156] | 100 | 100 | 100 | 83
CO/N=C(/C(=O)OC)c1cccc(C)c1CO/N=C(\C)c1cc(-c2ccc(Cl)cc2)on1 [Example 18] | 90 | 83 | 93 | 73
CNC(=O)/C(=N/OC)c1cccc(C)c1CO/N=C(\C)c1ncccc1C(F)(F)F [Example 28, (2E)-2-methoxyimino-N-methyl-2-[3-methyl-2-[[(E)-1-[3-(trifluoromethyl)-2-pyridyl]-ethylideneamino]oxymethyl]phenyl]acetamide] | 44 | 9 | 27 | 1
CNC(=O)/C(=N/OC)c1cccc(C)c1CO/N=C(\C)c1cc(C(F)(F)F)c(C#N)c(Cl)n1 [Example 98] | 57 | 28 | 57 | 32
CNC(=O)/C(=N/OC)c1cccc(C)c1CO/N=C(\C)c1ncnc(Cl)c1F [Example 108] | 97 | 87 | 73 | 53
CNC(=O)/C(=N/OC)c1cccc(C)c1CO/N=C(\C)c1cncc(C(F)(F)F)n1 [Example 89, (2E)-2-Methoxyimino-N-methyl-2-[3-methyl-2-[[(E)-1-[6-(trifluoromethyl)pyrazin-2-yl]ethylideneamino]oxymethyl]phenyl]acetamide] | 100 | 100 | 100 | 83
